## Apparent affinities of Ab-14 variants for a coronavirus HR2 peptide

Target: peptide PDVDLGDISGINAS, taken from heptad repeat 2 (HR2) of SARS-CoV-2 spike.

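The parent was found by panning a naive human phage display library on the peptide. The library (AAYL49) carries one to three amino acid substitutions per variant, with no insertions or deletions. Affinity was read by AlphaSeq, a pooled yeast mating assay with surface-displayed partners. After mating in shaken culture at 30 °C for 16 h, diploids were selected and their barcode pairs sequenced. The ratio of observed to expected reads was calibrated, replicate by replicate, on BCL2-family standards whose Kd was known from biolayer interferometry. There are three technical replicates.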

Parent scFv Ab-14: VH joined to VL by the linker GGGGSGGGGSGGGGS. Changes lie in the heavy chain CDRs alone.
VH: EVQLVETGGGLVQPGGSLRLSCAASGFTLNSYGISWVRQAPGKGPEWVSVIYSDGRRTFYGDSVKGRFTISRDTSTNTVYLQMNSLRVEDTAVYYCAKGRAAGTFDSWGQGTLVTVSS
VL: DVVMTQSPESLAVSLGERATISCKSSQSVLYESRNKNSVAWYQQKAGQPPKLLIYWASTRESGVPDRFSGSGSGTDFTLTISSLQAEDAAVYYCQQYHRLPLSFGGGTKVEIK

Positions count from residue 1 of the parent VH; F27V puts V in place of F.
Numbers give log10(Kd / nM), so 0 is 1 nM and 3 is 1 µM. Smaller is tighter.
The mean shown is taken over the replicates in which the pair was detected.
"nd" marks a missing value. The strain was present, yet no cells mated with the target were sequenced in that replicate, which points to weak or no binding.
In this assay the parent's reference entry averaged 0.65; its copy inside this library read 4.11 (one replicate of three).
Three control strains display no target. For library AAYL49, 15% of the pairings with them gave a signal, with a median of 4.06 and one signal in twenty below 2.83, so weak values seen in few replicates may be background. Also given: how often the same scFv was detected with the empty control strains.

Variant F27V+S53M+T104M gave nd, 3.51, nd (controls 0 of 9).
Variant V50S+I51G+Y52R gave 3.87, nd, nd (controls 1 of 9).
Variant F27W gave 3.59, 3.11, 3.35 (mean 3.35; controls 2 of 9).
Variant I34F gave nd, nd, nd (controls 1 of 9).
Variant T28A+F59H+S107A gave 1.48, 1.56, 1.42 (mean 1.48; controls 2 of 9).
Variant D106R gave 2.75, nd, 3.33 (mean 3.04; controls 2 of 9).
Variant S31C+Y32R+G55H gave 2.93, nd, nd (controls 0 of 9).
Variant G33E+R57T+K65Q gave nd, nd, nd (controls 2 of 9).
Variant G33F+F59T+F105H gave 6.57, 5.67, 4.54 (mean 5.60; controls 4 of 9).
Variant I51N+Y52L+K65Y gave nd, nd, nd (controls 0 of 9).
Variant I51C+F59S+Y60T gave nd, nd, nd (controls 0 of 9).
Variant G26I+N30I+D62C gave 3.55, 3.19, 3.35 (mean 3.36; controls 1 of 9).
Variant T28F+L29Q+T104G gave nd, nd, nd (controls 1 of 9).
Variant T58Y+D62R+V64I gave nd, 3.41, nd (controls 1 of 9).
Variant D54I+G61A+D106F gave 5.51, 3.04, nd (mean 4.27; controls 0 of 9).
Variant V50W+G55H+G103I gave 4.95, 5.26, nd (mean 5.11; controls 4 of 9).
Variant L29I+G55M+D106R gave nd, nd, nd (controls 0 of 9).
Variant Y60F+D106H gave 2.54, nd, nd (controls 0 of 9).
Variant Y32C+Y52A+A102T gave nd, nd, nd (controls 0 of 9).
Variant T28V+G99V+R100K gave 1.28, 1.10, 1.54 (mean 1.31; controls 0 of 9).
Variant G33K+K65I+F105W gave 4.80, 4.24, 4.25 (mean 4.43; controls 7 of 9).
Variant F27H+T58P+K65N gave nd, nd, nd (controls 2 of 9).
Variant Y52Q+K65E gave 5.46, nd, 4.95 (mean 5.20; controls 2 of 9).
Variant S35R+G61A+G103P gave nd, nd, nd (controls 0 of 9).
Variant Y32M+G99T+S107N gave 4.20, 4.66, nd (mean 4.43; controls 0 of 9).
Variant Y60L+K65L gave nd, nd, nd (controls 1 of 9).
Variant S35L+G55D+V64K gave nd, nd, nd (controls 2 of 9).
Variant T28H+N30Q+V64H gave nd, nd, nd (controls 0 of 9).
Variant D54Y+D62S+S63P gave nd, nd, 4.14 (controls 3 of 9).
Variant S31R+I51G+V64E gave nd, nd, nd (controls 0 of 9).
Variant I51Q+R56T+A101Y gave nd, 4.43, nd (controls 0 of 9).
Variant T28I+G99H+D106Q gave nd, nd, nd (controls 1 of 9).
Variant L29G+G55F+S63E gave nd, nd, nd (controls 1 of 9).
Variant V64R+G99M+A101C gave nd, nd, nd (controls 0 of 9).
Variant L29R+N30C+S53D gave nd, nd, nd (controls 0 of 9).
Variant N30H gave 1.03, 1.09, 1.24 (mean 1.12; controls 2 of 9).
Variant I51P+D54F+T58E gave nd, nd, nd (controls 2 of 9).
Variant Y32T+I34M+F105E gave nd, 4.44, 4.72 (mean 4.58; controls 2 of 9).
Variant I51Y+S53A+S107C gave nd, nd, nd (controls 1 of 9).
Variant R57C+T104A gave nd, 3.26, nd (controls 2 of 9).
Variant G26E+G61K+F105W gave nd, nd, nd (controls 0 of 9).
Variant G26S+T58C+R100P gave 5.29, 5.40, 6.19 (mean 5.63; controls 5 of 9).
Variant R100I+A101N+T104D gave 1.04, 1.03, 1.11 (mean 1.06; controls 0 of 9).
Variant T28M+R100K+D106L gave nd, nd, nd (controls 0 of 9).
Variant L29C+K65I+T104D gave nd, nd, nd (controls 1 of 9).
Variant N30K+F59P+S107F gave nd, nd, nd (controls 0 of 9).
Variant I51T+R56D+D106F gave nd, nd, nd (controls 3 of 9).
Variant D54V+Y60G+A102L gave 3.31, nd, nd (controls 0 of 9).
Variant F27A+A102Q+G103Y gave nd, nd, nd (controls 0 of 9).
Variant I34N+Y52E gave nd, nd, nd (controls 3 of 9).
Variant T58S gave 2.05, 1.47, 2.05 (mean 1.86; controls 3 of 9).
Variant V50E+R56H+Y60I gave nd, nd, nd (controls 0 of 9).

A selection of 4 entries from above:

Variant L29C+K65I+T104D gave nd, nd, nd (controls 1 of 9).
Variant D106R gave 2.75, nd, 3.33 (mean 3.04; controls 2 of 9).
Variant I51P+D54F+T58E gave nd, nd, nd (controls 2 of 9).
Variant I51C+F59S+Y60T gave nd, nd, nd (controls 0 of 9).

Values reported by Engelhart et al. 2022, doi:10.1038/s41597-022-01779-4 (FLAb copy).